{"source": "patent US9289507B2", "about": "“Carriers for improved drug delivery” (Extend Biosciences, Inc., priority 2012, dated 2016)", "origin": "cited, not measured here", "details": "active vitamin D, bound to DBP; cited from earlier work", "data": [{"substance": "vitamin D", "values": [{"measurement": "time kept in circulation by DBP, on average", "result": 30, "unit": "days"}]}]}
